# Antibody variant affinities, Ab-95 light chain, assay 2

Data: MIT Lincoln Laboratory AlphaSeq set, Engelhart et al. 2022, doi:10.1038/s41597-022-01779-4, as distributed in FLAb.

All variants were tested on one target, the spike HR2 peptide PDVDLGDISGINAS (SARS-CoV-2).

The variants keep the heavy chain, the linker and the frameworks of Ab-95 (scFv order VH, three GGGGS repeats, VL).
VH: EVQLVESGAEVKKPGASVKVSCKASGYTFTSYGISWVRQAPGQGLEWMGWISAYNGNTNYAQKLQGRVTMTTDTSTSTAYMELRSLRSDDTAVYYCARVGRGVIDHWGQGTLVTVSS
VL: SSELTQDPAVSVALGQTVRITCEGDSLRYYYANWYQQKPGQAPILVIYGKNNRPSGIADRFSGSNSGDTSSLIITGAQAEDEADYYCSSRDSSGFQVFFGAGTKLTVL

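The starting antibody came from a phage panning campaign against this peptide. The library (AAYL52) carries one to three amino acid substitutions per variant, with no insertions or deletions. In AlphaSeq, yeast of one mating type display the scFv and yeast of the other type display the target. Binding brings cells together so that they mate, and sequencing counts the barcode pairs among the diploids. Scores were corrected for input abundance and mapped to Kd with protein pairs of known affinity run in the same pool. Each pool was mated in three replicate cultures.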

Sequences are complete VL domains.
The read-out is the apparent dissociation constant on a log10 scale (nM): the lower, the stronger.
"n.d." means that the variant was in the library but no mating with the target was seen in that replicate; the authors take this as a sign of poor binding, and no number exists.
As a blank, each scFv also met three strains without target: over library AAYL52, 28% of these pairings were detected, typically at 3.91 and seldom below 2.90. The control count says in how many pairings with the empty strains this scFv gave a signal, with their mean in brackets.

VL | log10 Kd (nM) by replicate | signal with controls
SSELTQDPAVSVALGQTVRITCEGESLRYYYANWYQQKPGQAPILVIYEKNNRPSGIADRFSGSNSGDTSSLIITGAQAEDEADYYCSDRDSSGFQVFFGAGTKLTVL | 3.02 3.92 3.69 | 4 of 9 (4.22)
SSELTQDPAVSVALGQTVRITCEGDSLFYYYAYWYQQKPGQAPILVIYGKNNRPSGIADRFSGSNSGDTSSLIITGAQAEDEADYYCESRDSSGFQVFFGAGTKLTVL | 1.93 1.59 1.63 | 1 of 9 (2.50)
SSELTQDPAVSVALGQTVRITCEGDGLRYYLANWYQQKPGQAPILVIYGKNNRPSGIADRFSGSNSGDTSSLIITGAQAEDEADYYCSPRDSSGFQVFFGAGTKLTVL | n.d. n.d. 4.56 | 3 of 9 (4.02)
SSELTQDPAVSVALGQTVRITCEGDSLRYYYANWYQQKPGQAPILVIYGYNNNPSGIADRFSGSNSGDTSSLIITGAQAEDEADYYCSSRDSSGFQVDFGAGTKLTVL | 3.72 3.81 4.10 | 1 of 9 (5.32)
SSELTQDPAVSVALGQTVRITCEGDSLRFPYANWYQQKPGQAPILVIYGKNNRPSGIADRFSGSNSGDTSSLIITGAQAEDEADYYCSSRDSSGFPVFFGAGTKLTVL | 2.29 2.40 2.05 | 1 of 9 (3.07)
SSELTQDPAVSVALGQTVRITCEGDSLRYYYANWYQQKPGQAPILVIYGKNTRPSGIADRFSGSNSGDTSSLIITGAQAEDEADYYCSSRDSSGFQMFFGAGTKLTVL | n.d. 4.07 n.d. | 3 of 9 (3.32)
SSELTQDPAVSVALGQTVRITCEGVSLRYYYANWYQQKPGQAPILVIYGKNNRPSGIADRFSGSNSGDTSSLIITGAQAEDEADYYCSSKISSGFQVFFGAGTKLTVL | 4.61 n.d. n.d. | 3 of 9 (4.41)
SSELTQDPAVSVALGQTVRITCEGDSLRYYAANWYQQKPGQAPILVIYGENNRPSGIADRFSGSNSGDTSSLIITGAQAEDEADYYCSSRDSSGFQVWFGAGTKLTVL | 1.26 1.15 0.70 | 2 of 9 (4.08)
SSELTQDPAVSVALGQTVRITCEGDSLRYYYANWYQQKPGQAPILVIYGKYLRPSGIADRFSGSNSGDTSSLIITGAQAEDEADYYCSSRDSSGFQVHFGAGTKLTVL | 3.49 n.d. 4.10 | 5 of 9 (3.55)
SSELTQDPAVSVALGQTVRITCEGDSLRDYVANWYQQKPGQAPILVIYGKNNLPSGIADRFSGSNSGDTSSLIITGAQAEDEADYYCSSRDSSGFQVFFGAGTKLTVL | 3.10 3.32 2.76 | 5 of 9 (4.31)
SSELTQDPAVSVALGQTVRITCEGDSLARYSANWYQQKPGQAPILVIYGKNNRPSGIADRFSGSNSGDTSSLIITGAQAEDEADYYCSSRDSSGFQVFFGAGTKLTVL | 2.10 2.06 1.64 | 6 of 9 (3.77)
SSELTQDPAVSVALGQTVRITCEGDSLRNYWANWYQQKPGQAPILVIYGKNNRPSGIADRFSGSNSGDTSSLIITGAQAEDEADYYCSIRDSSGFQVFFGAGTKLTVL | 2.62 2.23 2.21 | 4 of 9 (3.75)
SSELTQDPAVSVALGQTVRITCEGDSLRYYYRNWYQQKPGQAPILVIYGFCNRPSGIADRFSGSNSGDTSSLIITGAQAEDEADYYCSSRDSSGFQVFFGAGTKLTVL | 4.19 4.11 3.49 | 6 of 9 (3.95)
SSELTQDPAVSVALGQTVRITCEGDSLRYYYSNWYQQKPGQAPILVIYGKNNRPSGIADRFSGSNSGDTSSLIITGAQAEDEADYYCSSRDSSAFHVFFGAGTKLTVL | 2.90 3.68 2.80 | 4 of 9 (3.66)
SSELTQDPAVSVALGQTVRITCEGDSLRYYYAGWYQQKPGQAPILVIYGHNNRPSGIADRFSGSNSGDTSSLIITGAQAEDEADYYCSSRDSSGFQVFFGAGTKLTVL | 2.50 3.74 3.00 | 4 of 9 (4.23)
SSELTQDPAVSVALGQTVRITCEGDSLGYYYANWYQQKPGQAPILVIYGKNTVPSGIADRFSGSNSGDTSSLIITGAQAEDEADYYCSSRDSSGFQVFFGAGTKLTVL | 3.56 3.04 3.47 | 2 of 9 (4.37)
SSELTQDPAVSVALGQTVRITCGGDSLRYYYANWYQQKPGQAPILVIYYKNNRPSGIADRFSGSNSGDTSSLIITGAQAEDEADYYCWSRDSSGFQVFFGAGTKLTVL | 4.42 5.52 n.d. | 3 of 9 (3.98)
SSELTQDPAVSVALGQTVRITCEGDTLRYYYANWYQQKPGQAPILVIYGKNNLPSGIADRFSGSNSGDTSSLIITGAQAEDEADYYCSSRDSSEFQVFFGAGTKLTVL | n.d. n.d. n.d. | 1 of 9 (3.15)
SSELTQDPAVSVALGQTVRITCEGDSLRYYYANWYQQKPGQAPILVIYGKNNRPWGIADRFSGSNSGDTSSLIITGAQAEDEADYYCSSFDSSGFQVGFGAGTKLTVL | 4.66 4.77 4.21 | 3 of 9 (4.60)
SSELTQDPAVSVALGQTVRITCEGISLRYYYANWYQQKPGQAPILVIYGANNRPSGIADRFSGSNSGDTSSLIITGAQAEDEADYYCSSRDSSGDQVFFGAGTKLTVL | 2.85 2.25 2.23 | 6 of 9 (3.50)
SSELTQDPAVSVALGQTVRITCEGDSLIYYYANWYQQKPGQAPILVIYGTNNRKSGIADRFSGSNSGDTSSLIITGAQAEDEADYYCSSRDSSGFQVFFGAGTKLTVL | n.d. n.d. n.d. | 3 of 9 (4.95)
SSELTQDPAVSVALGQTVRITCEGDSIRYYYANWYQQKPGQAPILVIYGKNNRLSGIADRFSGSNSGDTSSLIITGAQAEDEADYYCSSRMSSGFQVFFGAGTKLTVL | n.d. 4.66 4.19 | 1 of 9 (3.23)
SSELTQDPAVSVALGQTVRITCEGDSLRYYYENWYQQKPGQAPILVIYGKNSRPYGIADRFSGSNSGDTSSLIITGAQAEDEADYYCSSRDSSGFQVFFGAGTKLTVL | 2.98 n.d. n.d. | 1 of 9 (2.85)
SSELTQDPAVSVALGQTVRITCYGDSLRYYYANWYQQKPGQAPILVIYGKNNGPSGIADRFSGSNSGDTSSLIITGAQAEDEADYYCSSRDSDGFQVFFGAGTKLTVL | 3.24 4.11 n.d. | 3 of 9 (3.24)